We go through 4 molecules from PubChem BioAssay AID1259312 (Keith Lab, Institute of Cancer Science, University of …, 2017).

The list shows a part of the results, in another mix than the full data. Active and inactive are the calls of the source.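 How the source made its calls: active means cell survival measured by absorbance rises more than 2.5-fold over infected cells without compound; inactive means the rest.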

The test is described as follows: survival after telomere uncapping, modulators, primary screen, cell-based (AID 1259312).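 Further: virus expresses mutant telomerase RNA that uncaps telomeres and kills cells; compound added 2 days after infection so exposure lasts 3 days.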 To be noted: HCT116 + Ad-hTR-mut, MTT, 5 d, at 10 µM, hits give high values.
As to `Cc1c(Br)c([N+](=O)[O-])nn1[N+](=O)[O-]`, the fold change was inactive: -1.74.
With `O=[N+]([O-])c1cc(Cl)ccc1NCCNc1c([N+](=O)[O-])cc(C(F)(F)F)cc1[N+](=O)[O-]` the figure was inactive: -2.05; with `O=c1[nH]nc(SCCOS(=O)(=O)O)c(=O)[nH]1`, inactive: -1.16; with `CN1CC(=O)N/C1=N\P(=O)(OCc1ccccc1)OCc1ccccc1`, inactive: 1.2.
